Experimental data reported in publication PMC12073449, “Development of a Mechanism of Action-Reflective Cell-Based Reporter Gene Assay for Measuring Bioactivities of Therapeutic Glucagon-like Peptide-2 Analogues” (Molecules, 2025).

Biological target: T1, human GLP-2R (Homo sapiens, UniProt O95838)
T1 construct: The full-length cDNA of human GLP-2R was synthesized, cloned, and inserted into the pLU.cmv.Zeo vector; expressed in transfected cells
T1 sequence (O95838 1-553): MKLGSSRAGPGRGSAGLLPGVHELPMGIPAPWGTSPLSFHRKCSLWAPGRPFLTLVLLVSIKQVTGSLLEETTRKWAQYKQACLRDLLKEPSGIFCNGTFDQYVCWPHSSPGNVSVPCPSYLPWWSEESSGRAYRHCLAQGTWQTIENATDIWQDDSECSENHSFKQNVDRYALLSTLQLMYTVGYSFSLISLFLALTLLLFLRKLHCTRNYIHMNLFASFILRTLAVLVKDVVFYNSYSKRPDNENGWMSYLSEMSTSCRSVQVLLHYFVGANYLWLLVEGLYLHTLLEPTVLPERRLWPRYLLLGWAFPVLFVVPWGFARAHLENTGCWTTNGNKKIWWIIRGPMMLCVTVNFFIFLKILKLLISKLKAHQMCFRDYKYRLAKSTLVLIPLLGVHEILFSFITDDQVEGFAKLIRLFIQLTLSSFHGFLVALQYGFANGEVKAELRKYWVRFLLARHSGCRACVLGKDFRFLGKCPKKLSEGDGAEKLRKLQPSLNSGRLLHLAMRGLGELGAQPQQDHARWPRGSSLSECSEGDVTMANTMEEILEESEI
Experiment: Cell-based reporter gene assay (RGA), HEK293-GLP-2R-Luc, CRE-luciferase
Conditions: diluted to 2.665 µmol/L and further 7-fold for 10 concentration points; HEK293-GLP-2R-Luc cells
Protocol: To generate a HEK293 cell line stably expressing CRE-driven luciferase and GLP2R, the CRE-miniP.Luc virus-containing cell supernatants were diluted in DMEM in the presence of 8 µg/mL polybrene before being added to HEK293 cells. To obtain a stable cell pool, the medium was replaced 48 h after incubation, with fresh culture medium containing 3 µg/mL puromycin. After about 3 weeks selection, the cell pool was then further infected with pLU.cmv-GLP2R.Zeo virus and selected with 200 µg/mL Zeocin and 3 µg/mL puromycin. […] The expression of GLP-2R was examined using flow cytometry. After that, the positive clones were routinely maintained in selective medium.
Cell-based RGA has been described previously. Briefly, 50 microliters of HEK293-GLP-2R-Luc cells were seeded into a 96-well white plate at a density of 4 × 10^4 cells/well. The cells were then incubated at 37 °C with 5% CO2 overnight (16 to 24 h). […] After 5 h of incubation, 100 µL of britelite plus reporter Gene Assay reagent were added to each well and mixed thoroughly under subdued light conditions for 5 min. The RLU signal was then determined with a SpectraMax M5e multimode plate reader (Molecular Devices, San Jose, CA, USA).
The RGA was validated as described previously. […] Samples of each potency level were tested by two analysts 8 times in total. […] The response of HEK293-GLP2R-Luc cells to these samples were determined as illustrated in 4.6.
The lower/upper asymptote was determined by the ratio of the top asymptote to the bottom asymptote when RGA best fit the 4PL model. The correlation coefficient (R^2), deviations from parallelism, and the regression in the 4PL model were estimated using SoftMax® Pro 7.1 software (Molecular Devices, San Jose, CA, USA). Specifically, a linear regression with an R^2 value no less than 0.98 was considered to have a very good fit. Additionally, a p-value below 0.01 was regarded as statistically significant. […] All the dose-response curves were plotted using GraphPad Prism® software 8.0.2 (GraphPad, Boston, MA, USA).

Substance | concentration–response curve in RGA (specificity)
Recombinant human chorionic gonadotrophin [rCG] | no dose–dependent response curve was induced
Recombinant human luteinizing hormone [rLH] | no dose–dependent response curve was induced
recombinant human Interleukin-2 [IL-2] | no dose–dependent response curve was induced
